Patent publication US9968570B2, “Compositions and methods for treating cancer” (Chemo-Enhanced LLC, priority 2013, dated 2018)

Key:
Assay type in all cases: cell-based, human
Panc-1 = test: MTT cell viability assay, C6-Ceramide with chemo agents; conditions: Panc-1 (FIG. 6B), basic DMEM; Gemcitabine 3 μg/ml, Taxol 15 ug/ml, C6-Ceramide 10 ug/ml, Cetuximab 10 ug/ml
Protocol: (§1) FIG. 6 depicts data showing synergistic effects of C6-Ceramide to potentiate the cytotoxicity of Paclitaxel (Taxol), Gemcitabine, and Cetuximab in L3.6, Panc-1, and MIA PaCa2 pancreatic cancer cell lines. Pancreatic cancer cell lines including L3.6 cells, Panc-1, and MIA-PaCa2 (MIA), cultured in basic DMEM medium, were treated with Taxol (3 ug/ml), Gemcitabine (3 ug/ml), or Cetuximab (10 ug/ml). Mitomycin C (10 ug/ml) was always present in the media to prevent cell proliferation from occurring. The data represent the mean±SD of at least triplicate experiments. *P<0.05 versus group without C6 Ceramide present. The experiments in this figure were repeated at least three times and similar results were observed. […]
(§2) Cell viability was measured by the 3-(4,5-dimethylthiazol-2-yl)-2,5-diphenyltetrazolium bromide (MTT) method, as described previously (Cao, C., et al. Sci Signal, 2: ra17, 2009; and Vanhaesebroeck, B., et al. Annu Rev Biochem, 70: 535-602, 2001). […] The medium was subsequently aspirated from each well and 150 μl of DMSO (Sigma, St. Louis, Mo.) was added to dissolve formazan crystals and the absorbance of each well was obtained using a Dynatech MR5000 plate reader at a test wavelength of 490 nm with a reference wavelength of 630 nm.

MIA-PaCa2 (MIA) cells = test: as above; conditions: MIA cells (FIG. 6C), basic DMEM; Gemcitabine 3 μg/ml, Taxol 15 ug/ml, C6-Ceramide 10 ug/ml, Cetuximab 10 ug/ml
Protocol: as §1, §2

[1] = system: L3.6 pancreatic cancer cells; test: MTT cell viability assay, C6-Ceramide / chemo agents / pathway inhibitors; conditions: L3.6 (FIG. 6A), basic DMEM; Gemcitabine 3 μg/ml, Taxol 15 ug/ml, C6-Ceramide 10 ug/ml, Cetuximab 10 ug/ml

Measured: cell death

Cetuximab: anti-EGFR monoclonal antibody
lack of effect: Panc-1 | MIA-PaCa2 (MIA) cells | [1]
